From PMC10941285, “Symmetrical Bispyridinium Compounds Act as Open Channel Blockers of Cation-Selective Ion Channels” (2024)
Values joined by “and” are separate entries in the source; they are usually repeats but may differ in a detail not shown here. Equal values may be shown once.

By UniProt entry, the sequences of proteins in these tests, tags left out. Where a name states a change or a piece, a line headed by the entry shows the natural chain unless it says otherwise. Chains listed by the source or under a name are the forms on record and can include a tag or linker. Residues count along the entry.
UniProt P36544, 23-502 limits assumed: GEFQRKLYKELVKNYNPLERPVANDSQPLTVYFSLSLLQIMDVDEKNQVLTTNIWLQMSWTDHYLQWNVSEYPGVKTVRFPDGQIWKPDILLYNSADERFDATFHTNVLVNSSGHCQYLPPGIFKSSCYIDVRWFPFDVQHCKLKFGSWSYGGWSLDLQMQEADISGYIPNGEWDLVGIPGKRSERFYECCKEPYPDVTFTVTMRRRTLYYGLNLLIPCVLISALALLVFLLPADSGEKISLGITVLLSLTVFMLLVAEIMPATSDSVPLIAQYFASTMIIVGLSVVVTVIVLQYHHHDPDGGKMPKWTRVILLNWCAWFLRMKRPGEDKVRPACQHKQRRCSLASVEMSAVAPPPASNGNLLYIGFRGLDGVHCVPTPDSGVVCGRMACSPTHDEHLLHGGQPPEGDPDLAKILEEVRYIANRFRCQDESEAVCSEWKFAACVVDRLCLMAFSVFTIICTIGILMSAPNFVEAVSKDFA
UniProt P36544, 23-502 M276L limits assumed: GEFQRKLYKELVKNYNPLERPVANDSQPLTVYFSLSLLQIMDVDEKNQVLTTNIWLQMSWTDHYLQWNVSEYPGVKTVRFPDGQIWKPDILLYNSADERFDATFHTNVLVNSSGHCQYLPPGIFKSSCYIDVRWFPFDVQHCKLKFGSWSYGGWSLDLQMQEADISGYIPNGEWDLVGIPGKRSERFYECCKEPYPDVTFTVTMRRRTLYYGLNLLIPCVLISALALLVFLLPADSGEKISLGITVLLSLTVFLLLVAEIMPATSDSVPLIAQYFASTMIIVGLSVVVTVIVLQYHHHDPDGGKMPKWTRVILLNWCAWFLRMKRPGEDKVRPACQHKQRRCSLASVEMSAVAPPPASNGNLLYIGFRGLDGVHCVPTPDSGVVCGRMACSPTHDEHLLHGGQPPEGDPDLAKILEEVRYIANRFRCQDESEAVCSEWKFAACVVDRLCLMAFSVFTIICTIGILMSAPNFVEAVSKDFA
UniProt P36544, 23-502 Y210F/A280S/E281D/I282T limits assumed: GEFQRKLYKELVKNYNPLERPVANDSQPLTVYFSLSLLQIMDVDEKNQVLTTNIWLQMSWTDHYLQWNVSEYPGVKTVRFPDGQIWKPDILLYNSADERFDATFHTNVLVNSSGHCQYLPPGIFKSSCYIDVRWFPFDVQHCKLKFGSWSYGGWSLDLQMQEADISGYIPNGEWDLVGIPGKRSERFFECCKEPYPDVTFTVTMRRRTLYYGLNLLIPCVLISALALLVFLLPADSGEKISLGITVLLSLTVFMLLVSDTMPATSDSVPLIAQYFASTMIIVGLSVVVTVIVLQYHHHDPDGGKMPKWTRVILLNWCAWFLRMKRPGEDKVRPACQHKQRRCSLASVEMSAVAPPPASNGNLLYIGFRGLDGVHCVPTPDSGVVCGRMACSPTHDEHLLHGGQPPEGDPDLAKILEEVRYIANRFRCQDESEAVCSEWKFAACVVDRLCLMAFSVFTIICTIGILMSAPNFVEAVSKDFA
UniProt P36544, with tags, fused parts or gaps E260A/INS259P/V274T limits assumed: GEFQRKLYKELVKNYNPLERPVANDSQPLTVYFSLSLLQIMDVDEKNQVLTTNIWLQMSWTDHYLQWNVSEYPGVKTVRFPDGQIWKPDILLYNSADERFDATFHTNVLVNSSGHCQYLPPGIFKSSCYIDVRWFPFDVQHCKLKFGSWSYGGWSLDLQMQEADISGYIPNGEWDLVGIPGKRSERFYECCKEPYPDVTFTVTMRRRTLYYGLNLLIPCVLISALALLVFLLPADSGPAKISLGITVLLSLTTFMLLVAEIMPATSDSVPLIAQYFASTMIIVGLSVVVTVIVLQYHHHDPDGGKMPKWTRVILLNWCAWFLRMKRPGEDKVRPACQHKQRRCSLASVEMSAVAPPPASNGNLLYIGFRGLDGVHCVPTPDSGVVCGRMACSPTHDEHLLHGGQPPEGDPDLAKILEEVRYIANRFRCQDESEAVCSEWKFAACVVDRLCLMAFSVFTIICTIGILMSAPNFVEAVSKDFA
UniProt P36544, with tags, fused parts or gaps E260A/E281R/INS259P/V274T limits assumed: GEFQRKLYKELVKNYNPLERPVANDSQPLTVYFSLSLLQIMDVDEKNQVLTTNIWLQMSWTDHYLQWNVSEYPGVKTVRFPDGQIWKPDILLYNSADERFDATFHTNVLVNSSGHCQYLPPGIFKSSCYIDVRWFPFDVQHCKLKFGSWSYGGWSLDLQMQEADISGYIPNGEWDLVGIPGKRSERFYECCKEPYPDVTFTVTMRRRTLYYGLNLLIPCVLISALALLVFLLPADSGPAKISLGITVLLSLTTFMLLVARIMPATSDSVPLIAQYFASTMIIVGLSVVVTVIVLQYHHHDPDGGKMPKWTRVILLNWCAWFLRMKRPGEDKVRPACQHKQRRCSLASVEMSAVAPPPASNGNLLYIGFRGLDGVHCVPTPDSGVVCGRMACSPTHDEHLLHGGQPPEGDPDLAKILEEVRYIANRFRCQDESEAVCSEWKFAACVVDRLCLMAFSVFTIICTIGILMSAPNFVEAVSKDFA
UniProt P36544, 23-502 A280S/E281D/I282T limits assumed: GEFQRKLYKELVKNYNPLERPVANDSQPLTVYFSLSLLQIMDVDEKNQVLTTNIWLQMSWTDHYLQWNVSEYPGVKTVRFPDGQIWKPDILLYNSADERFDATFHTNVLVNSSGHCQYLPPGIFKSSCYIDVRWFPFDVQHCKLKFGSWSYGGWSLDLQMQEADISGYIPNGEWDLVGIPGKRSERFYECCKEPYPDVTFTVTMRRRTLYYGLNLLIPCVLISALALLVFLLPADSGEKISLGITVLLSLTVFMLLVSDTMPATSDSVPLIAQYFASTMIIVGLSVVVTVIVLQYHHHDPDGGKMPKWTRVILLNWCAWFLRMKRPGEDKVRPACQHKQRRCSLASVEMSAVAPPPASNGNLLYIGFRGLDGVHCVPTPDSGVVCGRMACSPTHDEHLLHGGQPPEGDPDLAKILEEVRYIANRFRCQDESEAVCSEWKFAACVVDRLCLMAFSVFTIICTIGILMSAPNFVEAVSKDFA
UniProt P36544, with tags, fused parts or gaps limits assumed: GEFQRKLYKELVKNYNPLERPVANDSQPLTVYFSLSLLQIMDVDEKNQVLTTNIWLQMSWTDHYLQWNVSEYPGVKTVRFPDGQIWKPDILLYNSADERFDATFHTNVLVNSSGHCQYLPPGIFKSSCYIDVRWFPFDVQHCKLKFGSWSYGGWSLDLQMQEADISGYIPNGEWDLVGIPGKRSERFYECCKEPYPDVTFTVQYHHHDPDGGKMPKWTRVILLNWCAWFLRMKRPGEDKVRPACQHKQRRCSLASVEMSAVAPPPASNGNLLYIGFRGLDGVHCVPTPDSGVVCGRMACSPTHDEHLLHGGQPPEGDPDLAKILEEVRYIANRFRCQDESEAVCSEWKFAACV
UniProt P11230, 24-501 limits assumed: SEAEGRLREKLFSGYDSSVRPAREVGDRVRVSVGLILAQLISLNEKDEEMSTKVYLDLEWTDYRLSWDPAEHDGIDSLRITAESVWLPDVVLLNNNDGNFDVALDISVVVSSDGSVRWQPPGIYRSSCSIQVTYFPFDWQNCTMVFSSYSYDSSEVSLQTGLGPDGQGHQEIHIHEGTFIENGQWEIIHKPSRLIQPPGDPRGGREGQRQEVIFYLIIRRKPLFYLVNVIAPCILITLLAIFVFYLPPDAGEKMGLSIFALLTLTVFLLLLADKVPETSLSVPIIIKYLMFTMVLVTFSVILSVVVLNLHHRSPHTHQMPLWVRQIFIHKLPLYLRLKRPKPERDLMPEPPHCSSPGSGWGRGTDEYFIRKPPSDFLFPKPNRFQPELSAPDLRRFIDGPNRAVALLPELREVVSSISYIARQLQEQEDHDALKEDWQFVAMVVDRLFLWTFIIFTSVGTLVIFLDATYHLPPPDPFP
UniProt Q07001, 22-517 limits assumed: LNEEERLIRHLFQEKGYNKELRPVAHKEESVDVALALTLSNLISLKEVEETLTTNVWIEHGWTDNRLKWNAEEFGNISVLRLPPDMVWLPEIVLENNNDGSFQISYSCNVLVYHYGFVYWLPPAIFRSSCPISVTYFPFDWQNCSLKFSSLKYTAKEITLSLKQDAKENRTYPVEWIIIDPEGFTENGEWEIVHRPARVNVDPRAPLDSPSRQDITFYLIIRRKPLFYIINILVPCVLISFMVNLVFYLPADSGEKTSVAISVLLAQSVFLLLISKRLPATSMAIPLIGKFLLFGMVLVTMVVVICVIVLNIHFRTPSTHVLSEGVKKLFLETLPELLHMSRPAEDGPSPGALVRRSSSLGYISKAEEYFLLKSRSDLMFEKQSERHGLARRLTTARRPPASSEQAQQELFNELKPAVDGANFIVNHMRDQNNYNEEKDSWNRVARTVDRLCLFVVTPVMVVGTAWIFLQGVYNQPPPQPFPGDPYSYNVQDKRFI
UniProt P23979, 24-489 S297A/D298E/T299I limits assumed: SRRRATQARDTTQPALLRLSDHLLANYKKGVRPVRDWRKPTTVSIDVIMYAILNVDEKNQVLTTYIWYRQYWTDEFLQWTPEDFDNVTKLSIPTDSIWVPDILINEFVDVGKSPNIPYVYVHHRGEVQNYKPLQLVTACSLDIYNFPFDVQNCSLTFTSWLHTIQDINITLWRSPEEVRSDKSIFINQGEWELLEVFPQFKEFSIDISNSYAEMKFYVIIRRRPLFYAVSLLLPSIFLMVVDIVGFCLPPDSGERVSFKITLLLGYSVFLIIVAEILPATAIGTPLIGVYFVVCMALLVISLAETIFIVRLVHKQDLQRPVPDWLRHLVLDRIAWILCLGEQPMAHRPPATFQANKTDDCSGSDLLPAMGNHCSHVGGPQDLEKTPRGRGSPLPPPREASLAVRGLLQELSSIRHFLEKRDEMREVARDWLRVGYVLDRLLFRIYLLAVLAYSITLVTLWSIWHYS
UniProt P23979, 24-489 limits assumed: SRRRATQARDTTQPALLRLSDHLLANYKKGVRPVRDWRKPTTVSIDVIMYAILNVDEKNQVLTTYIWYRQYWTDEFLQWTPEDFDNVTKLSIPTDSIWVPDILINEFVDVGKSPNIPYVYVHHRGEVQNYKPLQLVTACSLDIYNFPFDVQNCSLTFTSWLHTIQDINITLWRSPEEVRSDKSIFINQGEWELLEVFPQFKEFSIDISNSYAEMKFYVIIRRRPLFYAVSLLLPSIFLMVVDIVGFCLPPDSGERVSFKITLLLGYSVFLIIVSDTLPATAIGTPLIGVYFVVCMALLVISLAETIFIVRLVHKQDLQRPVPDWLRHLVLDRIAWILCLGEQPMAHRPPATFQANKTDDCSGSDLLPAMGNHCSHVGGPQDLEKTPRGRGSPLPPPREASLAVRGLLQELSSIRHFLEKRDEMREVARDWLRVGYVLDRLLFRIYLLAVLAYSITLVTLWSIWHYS
UniProt P23979, with tags, fused parts or gaps limits assumed: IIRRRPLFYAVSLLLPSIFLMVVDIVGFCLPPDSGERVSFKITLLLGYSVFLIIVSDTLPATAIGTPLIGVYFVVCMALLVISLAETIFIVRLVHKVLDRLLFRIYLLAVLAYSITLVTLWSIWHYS
UniProt P17787, 26-502 limits assumed: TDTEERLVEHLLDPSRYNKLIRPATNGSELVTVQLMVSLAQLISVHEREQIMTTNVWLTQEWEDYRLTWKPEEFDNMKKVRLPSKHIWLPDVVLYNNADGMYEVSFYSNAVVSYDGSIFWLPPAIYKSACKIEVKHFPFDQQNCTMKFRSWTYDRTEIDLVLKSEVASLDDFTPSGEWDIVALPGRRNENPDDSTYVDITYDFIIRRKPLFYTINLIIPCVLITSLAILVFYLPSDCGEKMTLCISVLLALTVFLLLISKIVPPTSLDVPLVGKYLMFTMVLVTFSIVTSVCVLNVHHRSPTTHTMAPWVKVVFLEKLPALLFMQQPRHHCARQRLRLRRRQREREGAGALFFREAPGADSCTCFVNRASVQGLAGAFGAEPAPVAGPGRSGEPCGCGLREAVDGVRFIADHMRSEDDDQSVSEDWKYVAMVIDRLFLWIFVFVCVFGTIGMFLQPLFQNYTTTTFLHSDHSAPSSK
UniProt P43681, 27-627 limits assumed: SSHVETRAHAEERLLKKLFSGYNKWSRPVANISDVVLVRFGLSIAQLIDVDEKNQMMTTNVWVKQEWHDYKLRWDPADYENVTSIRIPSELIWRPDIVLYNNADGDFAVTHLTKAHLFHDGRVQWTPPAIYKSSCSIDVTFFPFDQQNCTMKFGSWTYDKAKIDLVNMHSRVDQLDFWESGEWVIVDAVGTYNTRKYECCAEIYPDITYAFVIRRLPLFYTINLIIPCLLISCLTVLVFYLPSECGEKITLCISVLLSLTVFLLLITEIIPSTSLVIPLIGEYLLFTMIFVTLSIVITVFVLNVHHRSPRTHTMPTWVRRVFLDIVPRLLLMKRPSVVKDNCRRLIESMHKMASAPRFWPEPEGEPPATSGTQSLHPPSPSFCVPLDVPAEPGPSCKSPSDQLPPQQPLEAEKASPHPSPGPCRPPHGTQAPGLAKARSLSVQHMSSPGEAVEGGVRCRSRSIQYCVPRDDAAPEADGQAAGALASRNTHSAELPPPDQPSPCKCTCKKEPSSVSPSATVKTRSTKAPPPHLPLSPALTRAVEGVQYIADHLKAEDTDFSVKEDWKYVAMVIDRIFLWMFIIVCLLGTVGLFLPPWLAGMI

What was measured:
α7 nAChR [1] = target: T1, α7 nAChR (Homo sapiens, UniProt P36544); experiment: TEVC of ACh-activated currents with preincubation and co-application of compounds, α7 nAChR expressed in Xenopus laevis oocytes; conditions: for IC50 ratio relative to MB327, α7: IC50(MB327)/IC50(compound); for Hill coefficient nH of inhibition, α7: dose-inhibition curve, −70 mV; for pIC50 (M) at α7: log-transformed IC50 of Table 1; for voltage-dependency of inhibition at α7: −100 mV compared with −50 mV, MLA 3 nM; for effect on α7 ACh-activated currents: tested concentrations up to 30 μM; for mean response at α7 (normalized to current before compound): EC80 agonist
α7 nAChR [2] = target: T1, α7 nAChR; experiment: ACh dose–response curves (TEVC, oocytes) without and in the presence of BPCs, α7
[3] = target: PNU120596-potentiated α7 nAChR (Homo sapiens, UniProt P36544); experiment: Co-application of BPCs or QX-314 upon preapplication of 10 μM PNU120596 and 100 μM ACh (TEVC, oocytes); conditions: concentrations producing 70–90% block at α7 in the absence of PNU120596
human (α1)2β1εδ nAChR [4] = target: T2, human (α1)2β1εδ nAChR (Homo sapiens, UniProt P02708+P11230+Q04844+Q07001); experiment: TEVC of ACh-activated currents with preincubation and co-application of compounds, muscle-type nAChR expressed in Xenopus laevis oocytes; conditions: for voltage-dependency of inhibition at muscle-type nAChR: −100 mV compared with −50 mV
human α7 M253L nAChR = human α7 M253L nAChR (Homo sapiens, UniProt P36544, M276L); experiment: TEVC dose-inhibition / potentiation at α7 PAM binding site mutant M253L in oocytes; conditions: for IC50(α7)/IC50(M253L): fold potency increase on the M253L mutation
α7 257-259SDT, Y210F = α7 257-259SDT, Y210F (Homo sapiens, UniProt P36544, A280S/E281D/I282T/Y210F); experiment: TEVC inhibition by PTM0022 at α7 257-259SDT, Y210F mutant in oocytes; conditions: 1 μM PTM0022
[5] = target: 5HT3A receptor (SDT into AEI) (Mus musculus, UniProt P23979, D298E/S297A/T299I); experiment: TEVC inhibition by PTM0022 at 5HT3A AEI mutant in oocytes; conditions: 1 μM PTM0022
α4β2 nAChR = α4β2 nAChR (Homo sapiens, UniProt P17787+P43681); experiment: TEVC inhibition at α4β2 nAChR in oocytes; conditions: 10 μM, −50 and −100 mV
[6] = target: muscle-type nAChR α1 ST, β1 A272S (Homo sapiens, UniProt P02708+P11230+Q04844+Q07001, A295S/L283T/V281S); experiment: TEVC inhibition by PTM0022 at muscle-type nAChR mutant in oocytes; conditions: 1 μM PTM0022
NaV1.4 = NaV1.4 (Rattus norvegicus, UniProt P15390); experiment: TEVC of sodium peak currents of NaV1.4 in oocytes; conditions: 10 μM
5HT3A receptor = 5HT3A receptor (Mus musculus, UniProt P23979); experiment: TEVC inhibition of 5HT-evoked currents at 5HT3A receptor in oocytes; conditions: −50 and −100 mV
[7] = target: α7^Anion (P236 insertion, E237A, V251T) (Homo sapiens, UniProt P36544, E260A/INS259P/V274T); experiment: TEVC (ACh dose response and inhibition by compounds) at α7 triple mutant α7^Anion in oocytes; conditions: 1 μM PTM0022, 10 μM MB327, 30 μM QX-314
P2X7 receptor = P2X7 receptor (Homo sapiens, UniProt Q99572); experiment: TEVC inhibition at P2X7 receptor in oocytes; conditions: −50 and −100 mV
α7 nAChR [8] = target: T1, α7 nAChR; experiment: α7 resensitization after 1 min desensitization with 1 mM ACh (TEVC, oocytes); conditions: 1 min 1 mM ACh; 3 μM PTM0022 or 10 μM PNU120596 co-applied
human (α1)2β1εδ nAChR [9] = target: T2, human (α1)2β1εδ nAChR; experiment: ACh dose–response curves (TEVC, oocytes) without and in the presence of BPCs, muscle-type
α7^Anion E258R = α7^Anion E258R (Homo sapiens, UniProt P36544, E260A/E281R/INS259P/V274T); experiment: TEVC (ACh dose response and inhibition by compounds) at α7^Anion E258R in oocytes; conditions: 1 μM PTM0022
[10] = target: α7 SDT (A257S, E258D, I259T) (Homo sapiens, UniProt P36544, A280S/E281D/I282T); experiment: TEVC (ACh dose response and inhibition by PTM0022) at α7 SDT mutant in oocytes; conditions: 1 μM PTM0022, compared with α7
α7^4TM5HT3A chimera = α7^4TM5HT3A chimera (Homo sapiens; Mus musculus, UniProt P23979+P36544); experiment: TEVC (ACh dose response and inhibition by compounds) at α7^4TM5HT3A chimera in oocytes; conditions: 1 μM PTM0022, 10 μM MB327, 30 μM QX-314
α7 nAChR [11] = target: T1, α7 nAChR; experiment: Manual whole-cell patch-clamp of CHO cells stably expressing human α7 nAChRs; conditions: 30 µM, −60 mV

CC(C)(C)c1cccc[n+]1CCC[n+]1ccccc1C(C)(C)C
IC50 ratio relative to MB327, α7 (α7 nAChR [1]): 0.74
Hill coefficient nH of inhibition, α7 (α7 nAChR [1]): –1.14
pIC50 (M) at α7 (α7 nAChR [1]): -5.33 M
nH of ACh in the presence of BPC, α7 (α7 nAChR [2]; +3 μM of the BPC): 1.57

CCN1C[C@]2(COC(=O)c3ccccc3N3C(=O)C[C@H](C)C3=O)CC[C@H](OC)[C@@]34[C@@H]5C[C@H]6[C@H](OC)[C@@H]5[C@](O)(C[C@@H]6OC)[C@@](O)([C@@H](OC)[C@H]23)[C@@H]14
voltage-dependency of inhibition at α7 (α7 nAChR [1]): did not show an altered response

COc1ccc[n+](CCC[n+]2cccc(OC)c2)c1
pIC50 (M) at α7 (α7 nAChR [1]): > -4.50 M
effect on α7 ACh-activated currents (α7 nAChR [1]): no effect

COc1cc[n+](CCC[n+]2ccc(OC)cc2)cc1
pIC50 (M) at α7 (α7 nAChR [1]): > -4.50 M
effect on α7 ACh-activated currents (α7 nAChR [1]): no effect

CCOC(=O)c1c[n+](CCC[n+]2ccc(C(C)(C)C)c(C(=O)OCC)c2)ccc1C(C)(C)C
IC50 ratio relative to MB327, α7 (α7 nAChR [1]): 7.14
Hill coefficient nH of inhibition, α7 (α7 nAChR [1]): –0.94
pIC50 (M) at α7 (α7 nAChR [1]): -6.31 M
nH of ACh in the presence of BPC, α7 (α7 nAChR [2]; +3 μM of the BPC): 1.53

CN(C)c1ccc[n+](CCC[n+]2cccc(N(C)C)c2)c1
IC50 ratio relative to MB327, α7 (α7 nAChR [1]): 0.50
Hill coefficient nH of inhibition, α7 (α7 nAChR [1]): –1.04
pIC50 (M) at α7 (α7 nAChR [1]): -5.16 M
nH of ACh in the presence of BPC, α7 (α7 nAChR [2]; +10 μM of the BPC): 1.93

CC(C)(C)c1cc[n+](CCC[n+]2ccc(C(C)(C)C)c(-c3ccccc3)c2)cc1-c1ccccc1
block of the PNU120596-potentiated α7 current [3]: fast and almost complete block
Hill coefficient nH of inhibition, (α1)2β1εδ (human (α1)2β1εδ nAChR [4]; dose-inhibition curve, −70 mV): –0.84
voltage-dependency of inhibition at muscle-type nAChR (human (α1)2β1εδ nAChR [4]): even more pronounced
nH of inhibition at α7 M253L (human α7 M253L nAChR): –1.76
IC50(α7)/IC50(M253L) (human α7 M253L nAChR): 0.67
inhibition at α7 257-259SDT, Y210F (α7 257-259SDT, Y210F): even further reduced
inhibition at 5HT3A with reverse substitutions (SDT into AEI) [5]: not reconstitute α7-like properties
inhibition of α4β2 nAChR (α4β2 nAChR): did not inhibit
inhibition at muscle-type nAChR α1 ST, β1 A272S [6]: no change in inhibition
mean response at α7 (normalized to current before compound) (α7 nAChR [1]; 1 μM compound): 9.3%
IC50 ratio relative to MB327, α7 (α7 nAChR [1]): 17.50
Hill coefficient nH of inhibition, α7 (α7 nAChR [1]): –1.07
pIC50 (M) at α7 (α7 nAChR [1]): -6.70 M
voltage-dependency of inhibition at α7 (α7 nAChR [1]): significantly stronger inhibition
effect on NaV1.4 sodium peak currents (NaV1.4): not affected
inhibition of 5HT3A, voltage-dependency (5HT3A receptor): voltage-dependent inhibition
inhibition at α7^Anion [7]: significantly reduced but not eliminated
inhibition of P2X7 receptor (P2X7 receptor): slightly inhibited but in a voltage-independent way
recovery/resensitization of desensitized α7 nAChR (α7 nAChR [8]): no current increase was observed
nH of ACh in the presence of BPC, (α1)2β1εδ (human (α1)2β1εδ nAChR [9]; +1 μM of the BPC): 1.06
inhibition at α7^Anion E258R (α7^Anion E258R): completely abolished
inhibition at α7 SDT (A257S, E258D, I259T) [10]: reduces the potency of 1 μM PTM0022 already significantly
nH of ACh in the presence of BPC, α7 (α7 nAChR [2]; +0.3 μM of the BPC): 1.46
potency at α7^4TM5HT3A chimera (α7 ICD introduced) (α7^4TM5HT3A chimera): did not result in a substantial potency increase

COc1cccc[n+]1CCC[n+]1ccccc1OC
IC50 ratio relative to MB327, α7 (α7 nAChR [1]): 0.09
Hill coefficient nH of inhibition, α7 (α7 nAChR [1]): –0.91
pIC50 (M) at α7 (α7 nAChR [1]): ~ -4.30 M

CC(C)(C)c1cc[n+](CCC[n+]2ccc(C(C)(C)C)cc2)cc1
block of the PNU120596-potentiated α7 current [3]: quickly reversible inhibition, although to a much smaller extent
voltage-dependency of inhibition at muscle-type nAChR (human (α1)2β1εδ nAChR [4]): even more pronounced
nH of inhibition at α7 M253L (human α7 M253L nAChR): –0.98
IC50(α7)/IC50(M253L) (human α7 M253L nAChR): 4 and 4.17
mean response at α7 (normalized to current before compound) (α7 nAChR [1]; 10 μM compound): 36.3%
IC50 ratio relative to MB327, α7 (α7 nAChR [1]): 1.00
Hill coefficient nH of inhibition, α7 (α7 nAChR [1]): –0.84
voltage-dependency of inhibition at α7 (α7 nAChR [1]): significantly stronger inhibition
inhibition at α7^Anion [7]: Neither QX-314 nor MB327 were able to inhibit this mutant
recovery/resensitization of desensitized α7 nAChR (α7 nAChR [8]): no current increase was observed
nH of ACh in the presence of BPC, (α1)2β1εδ (human (α1)2β1εδ nAChR [9]; +10 μM of the BPC): 1.10
effect on ACh (100 µM)-evoked currents in CHO cells (α7 nAChR [11]): inhibits
nH of ACh in the presence of BPC, α7 (α7 nAChR [2]; +3 μM of the BPC): 1.66
potency at α7^4TM5HT3A chimera (α7 ICD introduced) (α7^4TM5HT3A chimera): significantly increased potency

CC(C)(C)c1ccc[n+](CCC[n+]2cccc(C(C)(C)C)c2)c1
IC50 ratio relative to MB327, α7 (α7 nAChR [1]): 1.10
Hill coefficient nH of inhibition, α7 (α7 nAChR [1]): –1.23
pIC50 (M) at α7 (α7 nAChR [1]): -5.50 M

CC[N+](CC)(CC)CC(=O)Nc1c(C)cccc1C
block of the PNU120596-potentiated α7 current [3]: unable to block at all
mean response at α7 (normalized to current before compound) (α7 nAChR [1]; 30 μM compound): 9.6%
IC50 ratio relative to MB327, α7 (α7 nAChR [1]): 0.70
Hill coefficient nH of inhibition, α7 (α7 nAChR [1]): –0.89
pIC50 (M) at α7 (α7 nAChR [1]): -5.30 M
voltage-dependency of inhibition at α7 (α7 nAChR [1]): significantly stronger inhibition of ACh-evoked responses at −100 mV
inhibition at α7^Anion [7]: Neither QX-314 nor MB327 were able to inhibit this mutant
recovery/resensitization of desensitized α7 nAChR (α7 nAChR [8]): no current increase was observed
potency at α7^4TM5HT3A chimera (α7 ICD introduced) (α7^4TM5HT3A chimera): did not result in a substantial potency increase
